This test has as its target Streptococcus pyogenes Cas9 (SpCas9) (Streptococcus pyogenes) (UniProt Q99ZW2). Kind of test: cell-based or functional assay.

By UniProt entry, the sequences of proteins in these tests, tags left out.
UniProt Q99ZW2, whole entry: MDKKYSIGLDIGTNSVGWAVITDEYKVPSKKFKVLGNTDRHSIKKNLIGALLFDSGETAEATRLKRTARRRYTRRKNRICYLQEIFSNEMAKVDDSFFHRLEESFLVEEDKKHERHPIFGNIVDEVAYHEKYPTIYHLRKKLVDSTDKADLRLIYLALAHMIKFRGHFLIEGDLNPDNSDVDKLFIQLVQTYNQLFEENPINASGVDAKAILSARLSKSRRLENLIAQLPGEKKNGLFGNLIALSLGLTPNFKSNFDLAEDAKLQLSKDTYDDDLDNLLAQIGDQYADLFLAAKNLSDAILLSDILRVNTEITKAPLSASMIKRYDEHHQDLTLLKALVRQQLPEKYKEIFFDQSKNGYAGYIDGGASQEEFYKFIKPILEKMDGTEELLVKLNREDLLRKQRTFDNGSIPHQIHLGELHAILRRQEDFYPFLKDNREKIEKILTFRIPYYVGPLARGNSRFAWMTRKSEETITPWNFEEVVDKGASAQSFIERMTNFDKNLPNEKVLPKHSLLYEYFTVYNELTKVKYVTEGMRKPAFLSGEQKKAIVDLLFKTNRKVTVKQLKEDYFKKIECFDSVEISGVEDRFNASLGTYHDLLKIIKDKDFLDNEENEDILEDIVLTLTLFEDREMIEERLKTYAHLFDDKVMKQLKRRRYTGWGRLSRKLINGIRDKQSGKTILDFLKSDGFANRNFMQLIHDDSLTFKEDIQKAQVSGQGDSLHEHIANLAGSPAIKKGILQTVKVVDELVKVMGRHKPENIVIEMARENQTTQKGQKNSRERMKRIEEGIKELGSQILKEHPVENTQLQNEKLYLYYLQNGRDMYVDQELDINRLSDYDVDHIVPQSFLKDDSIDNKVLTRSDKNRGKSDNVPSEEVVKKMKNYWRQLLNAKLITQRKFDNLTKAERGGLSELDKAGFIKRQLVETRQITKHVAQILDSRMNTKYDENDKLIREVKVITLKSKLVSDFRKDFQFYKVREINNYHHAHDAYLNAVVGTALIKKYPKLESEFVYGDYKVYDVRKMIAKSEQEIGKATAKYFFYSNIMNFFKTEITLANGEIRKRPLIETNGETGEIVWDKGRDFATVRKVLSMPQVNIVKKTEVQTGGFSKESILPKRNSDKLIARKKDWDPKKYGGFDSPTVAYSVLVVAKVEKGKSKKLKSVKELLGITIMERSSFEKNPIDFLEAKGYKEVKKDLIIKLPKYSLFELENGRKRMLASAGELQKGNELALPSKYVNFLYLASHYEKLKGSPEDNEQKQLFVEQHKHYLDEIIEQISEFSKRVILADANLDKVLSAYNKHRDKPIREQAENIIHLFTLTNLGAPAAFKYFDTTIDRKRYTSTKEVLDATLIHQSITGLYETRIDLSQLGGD

As for AcrIIA4 from Listeria monocytogenes, the IC50 (Spinach in vitro transcription assay, inhibition of SpCas9 nuclease activity, 5 nM SpCas9) was found to be 9.1 nM.

The values above are taken from patent US20200239879A1.
